scFv variants of Ab-14 (heavy chain) against a SARS-CoV-2 spike peptide

The target is the same throughout: PDVDLGDISGINAS, from the HR2 region of SARS-CoV-2 spike.

Parent scFv Ab-14: VH joined to VL by three GGGGS repeats. Changes lie in the heavy chain CDRs alone.
VH: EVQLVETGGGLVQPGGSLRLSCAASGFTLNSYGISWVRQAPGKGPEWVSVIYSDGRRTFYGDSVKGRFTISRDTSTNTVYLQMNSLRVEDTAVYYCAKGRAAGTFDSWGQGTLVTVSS
VL: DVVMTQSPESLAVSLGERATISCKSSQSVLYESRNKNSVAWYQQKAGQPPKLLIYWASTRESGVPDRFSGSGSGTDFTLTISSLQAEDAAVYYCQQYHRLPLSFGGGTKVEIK

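These sequences belong to a second round, designed from the earlier measurements on random variants of the parent. Their group label is 14H_En_Gen (En: ensemble of fine-tuned language models; Gen: genetic algorithm). In AlphaSeq, yeast of one mating type display the scFv and yeast of the other type display the target. After mating in shaken culture at 30 °C for 16 h, diploids were selected and their barcode pairs sequenced. Scores were corrected for input abundance and mapped to Kd with protein pairs of known affinity run in the same pool. Each pool was mated in six replicate cultures.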

Variants are written as CDR1, CDR2 and CDR3 of the heavy chain (limits as in the source). Parent: GFTLNSYGIS, VIYSDGRRTFYGDSVK, GRAAGTFDS. The read-out is the apparent dissociation constant on a log10 scale (nM): the lower, the stronger. Replicates are averaged; those with no signal do not enter the mean. "n.d." marks a missing value. The strain was present, yet no cells mated with the target were sequenced in that replicate, which points to weak or no binding.

CDR-H1,CDR-H2,CDR-H3,"replicates, log10 nM","log10 Kd (nM), mean",signal with controls
GFDLDEYGIS,VIYADGKRTAYIDSVK,GNVAGTFDL,-0.45 / -0.49 / -0.70 / -0.81 / -0.38 / -0.54,-0.56,0 of 18
GFDLNEYGIS,VIYADGKRTYYADSVK,GNTAGTFDV,-0.02 / -0.64 / 0.10 / -0.45 / -0.81 / -0.53,-0.39,0 of 18
GFDLDEYGIS,VIYADGMRTAYADSVK,GTNAGTFDQ,-0.10 / -1.31 / -0.66 / -0.90 / -1.34 / -0.46,-0.80,0 of 18
GFDLNEYGIS,VIYADGRRTAYIDSVK,GNNAGTFDV,0.06 / -0.29 / -0.37 / -0.03 / -0.18 / -0.12,-0.15,0 of 18
GFDLNEYGIS,VIYADGKRTAYVDSVK,GSNAGTFDV,-0.72 / -0.46 / -0.49 / -0.37 / -0.73 / -0.70,-0.58,0 of 18
GFDLDEYGIS,VIYADGRRTAYTDSVK,GETAGTFDV,-0.02 / -0.22 / -0.10 / -0.28 / -0.22 / -0.07,-0.15,0 of 18
GFDLDEYGIS,VIYADGKRTAYSDSVK,GEVAGTFDM,-0.19 / -0.13 / -0.07 / -0.30 / -0.02 / -0.16,-0.14,0 of 18
GFDLNEYGIS,VIYADGMRTAYTDNVK,GEVAGTFDL,0.20 / -0.21 / 0.21 / -0.15 / -0.69 / 0.01,-0.11,0 of 18
GFDLNEYGIS,VIYADGVRKAYADSVK,GENAGTFDV,-0.13 / -0.27 / -0.86 / -0.58 / -0.42 / -0.42,-0.45,0 of 18
GFDLNEYGIS,VIYADGQRTAYTDSVK,GNQAGTFDV,-0.88 / -0.83 / -0.73 / -0.50 / -0.13 / -1.12,-0.70,0 of 18
GFDLEEYGIS,VIYADGMRTAYADSVK,GNNAGTFDL,-0.24 / -0.29 / -0.08 / -0.78 / -0.24 / -0.47,-0.35,0 of 18
GFDLNEYGIS,VIYADGKRTAYANSVK,GNQAGTFDV,-0.11 / -0.52 / -0.50 / -0.82 / -0.73 / -0.51,-0.53,0 of 18
GFDLNEYGIS,VIYADGMRTFYADSVK,GETAGTFDV,-0.07 / -0.58 / -0.96 / -0.58 / 0.34 / -0.68,-0.42,0 of 18
GFDLDEYGIS,VIYADGMRTAYSDSVK,GNNAGTFDL,-0.36 / -0.16 / -0.03 / 0.01 / -0.07 / -0.36,-0.16,1 of 18 (1.34)
GFDLNEYGIS,VIYADGMRKYYADSVK,GNVAGTFDQ,-0.56 / -0.48 / -0.41 / -0.76 / -0.50 / -0.08,-0.47,0 of 18
GFDLDEYGIS,VIYADGKRTFYADSVK,GETAGTFDV,-0.42 / 0.23 / -0.40 / -0.27 / 0.39 / -0.42,-0.15,0 of 18
GFDLDEYGIS,VIYADGMRTAYSDSVK,GGNAGTFDQ,n.d. / n.d. / n.d. / n.d. / n.d. / n.d.,n.d.,0 of 18
GFDLDEYGIS,VIYADGMRTAYADDVK,GNQAGTFDL,0.03 / 0.14 / -0.16 / 0.04 / -0.27 / 0.14,-0.01,0 of 18
GFDLNEYGIS,VIYADGQRTAYADSVK,GNTAGTFDM,0.19 / -0.48 / -0.44 / -0.35 / 0.32 / 0.37,-0.06,0 of 18
GFDLNEYGIS,VIYADGQRTYYADSVK,GETAGTFDV,-0.65 / -0.59 / -0.98 / -1.15 / -0.64 / -0.41,-0.74,0 of 18
GFDLNEYGIS,VIYADGKRTAYADSVK,GANAGTFDQ,n.d. / -1.25 / n.d. / -0.90 / n.d. / -0.95,-1.03,0 of 18
GFDLNEYGIS,VIYADGMRKSYADSVK,GNVAGTFDV,-0.27 / 0.15 / -0.72 / -0.37 / -0.19 / -0.62,-0.34,0 of 18
GFDLNEYGIS,VIYADGRRQAYADSVK,GENAGTFDV,n.d. / n.d. / n.d. / n.d. / n.d. / n.d.,n.d.,0 of 18
GFDLNEYGIS,VIYADGKRTAYIDSVK,GNVAGTFDM,0.09 / 0.10 / -0.05 / 0.40 / -0.67 / -0.15,-0.05,0 of 18
GFDLSEYGIS,VIYADGKRTAYADSVK,GNVAGTFDV,-0.21 / -0.01 / -0.26 / -0.28 / -0.23 / 0.26,-0.12,0 of 18
GFDLNEYGIS,VIYADGVRTAYADSVK,GEQAGTFDV,0.27 / -0.09 / -0.14 / -0.07 / -0.25 / 0.39,0.02,1 of 18 (2.26)
GFDLDEYGIS,VIYADGVRTAYADSVK,GNEAGTFDI,0.68 / 0.68 / 0.58 / 0.77 / 0.66 / 1.04,0.74,0 of 18
GFDLDEYGIS,VIYADGTRTAYADSVK,GNNAGTFDV,-0.13 / -0.09 / 0.05 / -0.17 / 0.13 / 0.28,0.01,0 of 18
GFDLNEYGIS,VIYADGRRTAYSDSVK,GNTAGTFDM,-0.11 / -0.33 / -0.71 / -0.67 / -0.59 / -0.46,-0.48,0 of 18
GFDLNEYGIS,VIYADGVRTSYADSVK,GNNAGTFDI,1.08 / 0.41 / 0.48 / 0.15 / 0.71 / 0.18,0.50,0 of 18
GFDLNEYGIS,VIYADGMRTAYTDDVK,GENAGTFDI,-0.27 / -0.59 / 0.22 / -0.86 / -0.44 / 0.13,-0.30,0 of 18
GFDLDEYGIS,VIYADGVRTAYADDVK,GNVAGTFDT,0.06 / -0.14 / 0.01 / -0.16 / -0.17 / -0.05,-0.07,0 of 18
GFDLNEYGIS,VIYADGSRTAYADSVK,GNTAGTFDQ,-0.36 / -0.16 / -0.31 / -0.72 / -0.60 / -0.25,-0.40,0 of 18
GFDLNEYGIS,VIYADGRRTAYSDSVK,GSNAGTFDV,-0.30 / -0.44 / -0.46 / -0.53 / -0.20 / -0.46,-0.40,0 of 18
GFDLDEYGIS,VIYADGMRTVYADSVK,GNVAGTFDI,-1.35 / -0.35 / -1.57 / -2.22 / -1.29 / -1.11,-1.32,0 of 18
GFDLNEYGIS,VIYADGQRTAYADSVK,GNNAGTFDV,0.56 / 0.00 / -0.26 / -0.03 / -0.05 / 0.46,0.11,0 of 18
GFDLNEYGIS,VIYADGMRTFYADSVK,GETAGTFDQ,0.36 / 0.45 / 0.45 / 0.10 / 0.41 / 0.31,0.35,0 of 18
GFDLNEYGIS,VIYADGSRTAYSDSVK,GQNAGTFDV,0.64 / 0.38 / 0.30 / 0.46 / 0.61 / 0.57,0.49,0 of 18
GFDLNEYGIS,VIYADGLRTAYSDSVK,GNVAGTFDI,0.21 / 0.29 / 0.02 / 0.17 / -0.05 / 0.01,0.11,1 of 18 (2.64)
GFDLNEYGIS,VIYADGMRTAYADSVK,GNNAGTFDI,-0.04 / -0.07 / -0.54 / -0.38 / -0.58 / 0.01,-0.27,0 of 18

7 of these entries, quoted again:

CDR-H1,CDR-H2,CDR-H3,"replicates, log10 nM","log10 Kd (nM), mean",signal with controls
GFDLDEYGIS,VIYADGMRTAYADSVK,GTNAGTFDQ,-0.10 / -1.31 / -0.66 / -0.90 / -1.34 / -0.46,-0.80,0 of 18
GFDLNEYGIS,VIYADGVRTSYADSVK,GNNAGTFDI,1.08 / 0.41 / 0.48 / 0.15 / 0.71 / 0.18,0.50,0 of 18
GFDLNEYGIS,VIYADGKRTAYIDSVK,GNVAGTFDM,0.09 / 0.10 / -0.05 / 0.40 / -0.67 / -0.15,-0.05,0 of 18
GFDLNEYGIS,VIYADGMRTAYTDDVK,GENAGTFDI,-0.27 / -0.59 / 0.22 / -0.86 / -0.44 / 0.13,-0.30,0 of 18
GFDLNEYGIS,VIYADGRRTAYSDSVK,GNTAGTFDM,-0.11 / -0.33 / -0.71 / -0.67 / -0.59 / -0.46,-0.48,0 of 18
GFDLDEYGIS,VIYADGVRTAYADSVK,GNEAGTFDI,0.68 / 0.68 / 0.58 / 0.77 / 0.66 / 1.04,0.74,0 of 18
GFDLNEYGIS,VIYADGQRTYYADSVK,GETAGTFDV,-0.65 / -0.59 / -0.98 / -1.15 / -0.64 / -0.41,-0.74,0 of 18

Three control strains display no target. For all heavy chain designs, 1% of the pairings with them gave a signal, with a median of 2.08 and one signal in twenty below 0.84, so weak values seen in few replicates may be background. Also given: how often the same scFv was detected with the empty control strains, with their mean in brackets. The authors averaged sequences with at least three values out of six and counted those with two or fewer as poor binders. Values of this round are not directly comparable with the first-round values of the same sequences.

The measurements come from Li et al. 2023 (doi:10.1038/s41467-023-39022-2) through the FLAb antibody collection.